From US5359138A (Zaidan Hojin Biseibutsu Kagaku Kenkyu KaI, priority 1989, dated 1994)

Amino acid sequences for entries named in this document (tags omitted).
UniProt P23687, whole entry: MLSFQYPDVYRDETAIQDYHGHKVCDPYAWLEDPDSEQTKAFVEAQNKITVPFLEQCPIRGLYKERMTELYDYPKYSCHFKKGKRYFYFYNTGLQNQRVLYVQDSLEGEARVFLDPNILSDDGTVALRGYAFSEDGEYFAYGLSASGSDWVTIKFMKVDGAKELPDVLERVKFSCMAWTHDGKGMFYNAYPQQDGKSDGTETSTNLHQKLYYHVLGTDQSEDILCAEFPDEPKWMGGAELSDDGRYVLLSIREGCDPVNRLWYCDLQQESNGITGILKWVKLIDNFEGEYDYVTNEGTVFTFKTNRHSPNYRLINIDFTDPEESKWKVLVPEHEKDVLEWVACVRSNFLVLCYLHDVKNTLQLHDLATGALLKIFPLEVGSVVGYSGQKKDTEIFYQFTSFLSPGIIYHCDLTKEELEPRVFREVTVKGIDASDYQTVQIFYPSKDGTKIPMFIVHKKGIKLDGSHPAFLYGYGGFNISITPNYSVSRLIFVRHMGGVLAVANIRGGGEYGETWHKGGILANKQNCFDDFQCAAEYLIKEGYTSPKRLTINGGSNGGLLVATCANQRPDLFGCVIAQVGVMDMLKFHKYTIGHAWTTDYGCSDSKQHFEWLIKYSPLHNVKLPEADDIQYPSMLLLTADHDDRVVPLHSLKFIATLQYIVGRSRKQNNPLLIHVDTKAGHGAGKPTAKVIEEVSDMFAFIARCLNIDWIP

Legend:
[1] = target: cathepsin B (Homo sapiens, UniProt P07858); experiment: Cathepsin B inhibition activity (method by Knight)
Method: The elastase inhibition activity was determined according to a method by Mumford, R. A. et al (J. Biol. Chem., 225, 2227 (1980)). The cathepsin B inhibition activity was determined according to a method by Knight, C. G. (Biochem. J., 189, 447-453 (1980)).

[2] = target: prolylendopeptidase (Sus scrofa, UniProt P23687); experiment: Determination of anti-prolylendopeptidase activity; conditions: pig kidney enzyme, substrate Z-Gly-Pro-beta-naphthylamide, 37° C., 30 minutes, pH 7.8
Method: The determination of anti-prolylendopeptidase activity was conducted by a modified method based on the method by Yoshimoto et al (Biochim. Biophys. Acta, vol. 569, pages 184-192 (1979)).
A test tube was charged with a solution mixture consisting of (a) 0.2 ml of a solution of 0.5 mM N-benzyloxycarbonyl-L-glycyl-L-prolyl-beta-naphthylamide in 40% dioxane; (b) 0.5 ml of a 0.05M Tris-HCl buffer solution (pH 7.8); and (c) 0.25 ml of an aqueous solution containing the test material. The solution mixture was heated to 37° C. for 3 minutes, and admixed with 0.05 ml of a prolylendopeptidase solution to effect a reaction at 37° C. for 30 minutes. The prolylendopeptidase employed was that which had been obtained according to a modified method based on the enzyme purification method by Koida, Walter et al. (J. Biol. Chem. Vol. 251, pages 7593-7599 (1976), wherein a pig kidney sample was subjected to a fractionation operation with ammonium sulfate, and wherein a purification was effected by a column chromatography employing a DEAE-Sephadex A-50 column.
After the completion of the reaction, the reaction mixture was admixed with 1 ml of a 1M sodium acetate buffer solution containing 10% of Tween-20 and 0.1% of Fast Garnet GBC salt. The reaction mixture was allowed to stand at room temperature for 15 minutes, and then measured for the light absorption at 525 nm (a). At the same time, a control sample, which was free of the test compounds and contained only the buffer solution, was measured for the light absorption (b).
The prolylendopeptidase inhibition activity was determined by employing the formula: […]

Structure (SMILES)	CatB = Cathepsin B inhibition activity, IC50 [1] [mg/L]	PPCE = Propylendopeptidase inhibition activity, IC50 [2] [mg/L]
CCC(NC(=O)[C@@H](NC(=O)[C@H](CC(=O)O)NC(=O)OCc1ccccc1)C(C)C)C(=O)C(=O)N[C@H](CC(C)C)C(=O)N[C@H](C(=O)O)C(C)C (stereo partly shown)	6.3	0.39
CCC(NC(=O)[C@@H](NC(=O)[C@@H](N)C(C)C)[C@@H](C)O)C(=O)C(=O)N[C@H](CC(C)C)C(=O)N[C@H](C(=O)O)C(C)C (stereo partly shown)	8.5	0.27
CCC(NC(=O)[C@@H]1CCCN1C(=O)OCc1ccccc1)C(=O)C(=O)N[C@H](CC(C)C)C(=O)N[C@H](C(=O)O)C(C)C (stereo partly shown)	120	0.02
CCC(NC(=O)[C@@H](NC(=O)[C@@H](N)C(C)C)C(C)C)C(=O)C(=O)NCC(=O)N[C@H](C(=O)O)C(C)C (stereo partly shown)	0.03	1.3
CC(C)C[C@@H](NC(=O)C(=O)C(C)NC(=O)[C@@H](NC(=O)[C@@H](NC(=O)OCc1ccccc1)C(C)C)C(C)C)C(=O)N[C@H](C(=O)O)C(C)C (stereo partly shown)	4.2	0.03
CCCC(NC(=O)[C@@H](NC(=O)[C@@H](N)C(C)C)C(C)C)C(=O)C(=O)N[C@H](CC(C)C)C(=O)N[C@H](C(=O)O)C(C)C (stereo partly shown)	1.4	0.38
CCC(NC(=O)[C@@H](NC(=O)[C@@H](N)C(C)C)C(C)C)C(=O)C(=O)N[C@H](CC(C)C)C(=O)N[C@H](C(=O)O)C(C)C (stereo partly shown)	34	0.29
CC(C)C[C@@H](NC(=O)C(=O)C(C)NC(=O)[C@@H](NC(=O)[C@@H](N)C(C)C)C(C)C)C(=O)N[C@H](C(=O)O)C(C)C (stereo partly shown)	9	0.05
CCC(NC(=O)[C@@H](NC(=O)[C@@H](NC(=O)OCc1ccccc1)C(C)C)C(C)C)C(=O)C(=O)N[C@H](CC(C)C)C(=O)N[C@H](C(=O)OC)C(C)C (stereo partly shown)	92	0.34
CCC(NC(=O)[C@@H](NC(=O)[C@@H](NC(=O)Cc1ccccc1)C(C)C)C(C)C)C(=O)C(=O)N[C@H](CC(C)C)C(=O)N[C@H](C(=O)O)C(C)C (stereo partly shown)	1.5	0.022
CCC(NC(=O)[C@@H]1CCCN1C(=O)[C@@H](NC(=O)OCc1ccccc1)C(C)C)C(=O)C(=O)N[C@H](CC(C)C)C(=O)N[C@H](C(=O)O)C(C)C (stereo partly shown)	> 100	0.05
CCC(NC(=O)[C@@H](NC(=O)[C@@H](NC(=O)CCCc1ccccc1)C(C)C)C(C)C)C(=O)C(=O)N[C@H](CC(C)C)C(=O)N[C@H](C(=O)O)C(C)C (stereo partly shown)	1.1	0.04
CCC(NC(=O)[C@@H](NC(=O)OCc1ccccc1)C(C)C)C(=O)C(=O)N[C@H](CC(C)C)C(=O)N[C@H](C(=O)O)C(C)C (stereo partly shown)	1.4	0.065
CCC(NC(=O)[C@@H](NC(=O)[C@@H](NC(=O)OCc1ccccc1)C(C)C)C(C)C)C(=O)C(=O)N[C@@H](CC(C)C)C(=O)N[C@H](C(=O)O)C(C)C (stereo partly shown)	0.03	2.2
CCC(NC(=O)[C@@H](NC(=O)[C@@H](NC(=O)OCc1ccccc1)C(C)C)C(C)C)C(=O)C(=O)N[C@H](CC(C)C)C(=O)N[C@H](C(=O)O)C(C)C (stereo partly shown)	1.1	0.034
CCC(NC(=O)[C@@H](NC(=O)OCc1ccccc1)C(C)C)C(=O)C(=O)N[C@H](CC(C)C)C(=O)N[C@H](C(=O)OCc1ccccc1)C(C)C (stereo partly shown)	> 100	0.05
CCC(NC(=O)[C@@H](NC(=O)[C@@H](NC(=O)c1ccccc1)C(C)C)C(C)C)C(=O)C(=O)N[C@H](CC(C)C)C(=O)N[C@H](C(=O)O)C(C)C (stereo partly shown)	1.4	0.07
CCC(NC(=O)[C@@H](NC(=O)[C@@H](NC(=O)CCc1ccccc1)C(C)C)C(C)C)C(=O)C(=O)N[C@H](CC(C)C)C(=O)N[C@H](C(=O)O)C(C)C (stereo partly shown)	2.1	0.025
CCC(NC(=O)[C@@H](NC(=O)[C@@H](N)C(C)C)C(C)C)C(=O)C(=O)N[C@@H](CC(C)C)C(=O)N[C@H](C(=O)O)C(C)C (stereo partly shown)	0.04	12
CC[C@H](NC(=O)[C@@H](NC(=O)[C@H](CCCCN)NC(=O)OCc1ccccc1)C(C)C)C(=O)C(=O)N[C@H](CC(C)C)C(=O)N[C@H](C(=O)O)C(C)C	0.65	0.03
